The text below walks through data of US20150099800A1, “NOVEL LIPASE INHIBITORS, REPORTER SUBSTRATES AND USES THEREOF” (Northeastern University, priority 2012, published 2015).

Amino acid sequences for entries named in this document (tags omitted).
UniProt P20272, whole entry: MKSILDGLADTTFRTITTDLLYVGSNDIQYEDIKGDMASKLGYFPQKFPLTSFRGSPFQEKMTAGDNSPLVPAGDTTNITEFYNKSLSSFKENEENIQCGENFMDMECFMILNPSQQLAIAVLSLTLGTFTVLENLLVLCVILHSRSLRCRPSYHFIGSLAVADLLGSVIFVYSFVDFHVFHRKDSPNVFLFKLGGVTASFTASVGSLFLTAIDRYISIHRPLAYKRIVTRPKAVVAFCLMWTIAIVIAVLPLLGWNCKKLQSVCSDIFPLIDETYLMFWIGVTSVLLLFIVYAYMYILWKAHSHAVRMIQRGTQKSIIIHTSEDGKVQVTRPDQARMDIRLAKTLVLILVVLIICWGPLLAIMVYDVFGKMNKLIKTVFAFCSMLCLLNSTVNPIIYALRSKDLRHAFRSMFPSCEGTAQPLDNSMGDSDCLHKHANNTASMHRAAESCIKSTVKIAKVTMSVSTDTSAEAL
UniProt Q99685, whole entry: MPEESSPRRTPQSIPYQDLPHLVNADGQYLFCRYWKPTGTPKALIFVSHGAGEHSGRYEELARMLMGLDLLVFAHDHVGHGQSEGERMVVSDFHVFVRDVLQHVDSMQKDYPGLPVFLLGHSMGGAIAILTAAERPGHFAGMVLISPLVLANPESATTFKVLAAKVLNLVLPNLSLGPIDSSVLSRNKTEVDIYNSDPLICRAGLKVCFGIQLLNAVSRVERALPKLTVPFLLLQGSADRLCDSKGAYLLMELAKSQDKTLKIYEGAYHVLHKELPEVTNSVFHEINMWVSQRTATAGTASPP

Where two headings read alike, the source gives them in different places.

Test [1] addresses T1, CB1 (rat brain preparation) (Rattus norvegicus, UniProt P20272). The conditions noted are these: read-out: apparent IC50, cannabinoid receptor binding; compared with literature rCB1.
The target of test [2] is T2, MAGL (Homo sapiens, UniProt Q99685). The conditions noted are these: cited from earlier work.
Test [3] concerns the target T1, CB1 (rat brain preparation). The conditions noted are these: read-out: literature IC50 for rCB1; literature report; cited from earlier work.
Test [4] addresses T2, MAGL. Nature of the test: hMAGL coumarin substrate fluorescence assay. It counts as biochemical. Set-up: The N-terminal his-tagged full length human monoacylglycerol lipase used; His (N); made in house; host or cells: E. coli.

One may read the IC50 as the concentration at which inhibition is half-maximal. `CCCCCCCCCCCCCCCCS(=O)(=O)F` [n-C16H33SO2F, Palmitylsulfonyl fluoride]: the IC50 is 440 nM in test [1] and 520 nM in test [3]. The “inhibition of MAGL activity reported in the literature” value on MAGL [2] was “poor inhibitors”. In addition, the “hMAGL inhibition at 10 μM (%)” value at MAGL [4] is on record as 82%.
